How the values were obtained:
Format in all cases: cell-based
MCF7 cells = experiment: Cell growth (alamar blue); conditions: 1-100 nM, data not shown
HER2 = experiment: Western blot of SkBr3 cell lysates; conditions: SkBr3 cells, 24 h
cyclin D1 = experiment: Western blot of SkBr3 cell lysates; conditions: SkBr3 cells, 24 h

**Q.** How did the effect on proliferation (MCF7 cells) turn out when “trastuzumab: recombinant DNA-derived humanized monoclonal antibody (IgG1 kappa) that binds the extracellular domain of HER2” was run?
**A.** Its effect on proliferation is “no significant effect”.

**Q.** And the HER2 levels (HER2)?
**A.** Its HER2 levels is “modest effect”.

**Q.** And the “cyclin D1 levels” value (cyclin D1)?
**A.** Its value is “no apparent effect”.

From patent US9173938B2, “Combination of a purine-based CDK inhibitor with a tyrosine kinase inhibitor and use thereof in the treatment of proliferative disorders” (Cyclacel Limited, priority 2007, dated 2015)
